Source: patent US8911966B2, “Efficient astaxanthin production strains derived from Haematococcus pluvialis” (Cognis IP Management GmbH, priority 2007, dated 2014)

Tested on: Haematococcus pluvialis SAG 34-1b
Test: Growth inhibition of wild strain by herbicides (minimal inhibiting concentration)
Type: cell-based
Details: strain SAG 34-1b; concentration also used for selection

Q: Which “minimal concentration of the herbicide which inhibits the growth of the wild strain” value does the source give for `CN1CCCC1c1cccnc1` (stereo not shown) [Nicotine, nicotine] here?
A: The value was 500 µM.
